Data from patent US9428783B2, “DNA encoding dipeptide-synthesizing enzyme (variants), bacterium belonging to the genus Escherichia, and methods for producing dipeptides using thereof” (Ajinomoto Co., Inc., priority 2012, dated 2016).

Tests used:
[1] = tested on: crude proteins preparation of E. coli BW25113 (WT); experiment: Specific aspartic peptide-hydrolyzing (DP3-hydrolyzing) activity in vitro; type: biochemical; conditions: 5 mM DP3, 37° C.
Method: The reaction mixture contained:
24 μg of crude proteins preparation, […]

E. coli BW25113 = experiment: DP3 toxicity, growth on M9-salts agar; conditions: WT
[2] = tested on: crude proteins preparation of E. coli 5Δ strain; experiment: Specific aspartic peptide-hydrolyzing (DP3-hydrolyzing) activity in vitro; conditions: 5 mM DP3, 37° C.
[3] = tested on: crude proteins preparation of E. coli 4Δ strain; experiment: as above; conditions: 5 mM DP3, 37° C.
E. coli 5Δ strain = experiment: DP3 toxicity, growth on M9-salts agar
[4] = tested on: crude proteins preparation of E. coli 6Δ strain; experiment: Specific aspartic peptide-hydrolyzing (DP3-hydrolyzing) activity in vitro; conditions: 5 mM DP3, 37° C.
[5] = Enzymatic production of Asp-Phe using ATP regeneration system; type: biochemical; conditions: 0.15 U enzyme, 100 mM L-AspNa, 100 mM L-Phe, 37° C.
Method: The product yield of Asp-Phe was studied in the reaction mixture of BBR47_51900 and Staur_4851 containing phosphoenolpyruvate and pyruvate kinase for regeneration of ATP in order to prevent highly concentrated ATP from inhibiting the enzyme reaction. The composition of the reaction mixture of total volume of 1 ml was as follows.
Reactions were carried out at 37° C. for 1-48 hours. 100 μL out of the 1 mL reaction mixture was sampled at each reaction time. Each reaction mixture, into which 10 μL of 1 M EDTA (pH9.0) was added to stop the reaction, was subjected to HPLC analysis. The condition was as described in Example 4. As a result, BBR47_51900 and Staur_4851 could produce Asp-Phe in the ATP regeneration system (Table 9).

[6] = HPLC determination of dipeptides synthesized by the enzymes; type: biochemical; conditions: 160 μg enzyme, 10 mM substrates, 10 mM ATP, pH 9.0, 32° C., 15 hours
Method: Dipeptides synthesized by BBR47_51900 and Staur_4851 were determined using HPLC analysis of reaction mixtures of total volume of 400 μL, which contained:
Reactions were carried out at 32° C. for 15 hours. Then […] of reaction mixture was filtered through the Amicon Ultra-0.5 mL, 3K Centrifugal Filters (Millipore, #UFC500396) and subjected to HPLC analysis.
The conditions were as follows: • Equipment: HITACHI L-2000 series. • Column: Inertsil ODS-3 4.6×250 mm, […] (GL Sciences Inc.). • Temperature: 40° C. • Buffers:
A (for mixture L-Asp/L-Val and L-Glu/L-Val): 0.1 M KH2PO4 (pH 2.2)+5 mM octanesulfonate, sodium salt: CH3CN as 4:1 (v/v),
B (for mixture L-Asp/L-Phe): 0.1 M KH2PO4 (pH 2.2)+5 mM octanesulfonate, sodium salt: CH3CN as 7:3 (v/v),
C (for mixture L-Asp/L-PheOMe, L-Asp/L-Trp, and L-Val/L-Val): 0.1 M KH2PO4 (pH 2.2)+5 mM octanesulfonate, sodium salt:CH3CN as 3:2 (v/v),
D (for mixture L-Phe/L-Phe): 0.1 M KH2PO4 (pH 2.2)+5 mM octanesulfonate, sodium salt: CH3CN as 1:1 (v/v). • Gradient profile: isocratic. • Flow rate: 1.5 mL/min. • Injection volume: 10 μL. • Detection: UV 210 nm.
Solution of αGlu-Val, γGlu-Val, αAsp-Val (10 mM each) and αAsp-Phe, βAsp-Phe (5 mM each) were prepared for HPLC analysis. The concentration of a dipeptide formed was determined using corresponding calibration curves. Each solution with standard sample was diluted to 50-folds or 100-folds for LC-QTOF/MS/MS analysis (Example 5).

[7] = Preliminary analysis of substrate specificity by TLC; type: biochemical; conditions: 4 μg enzyme, 10 mM each amino acid, 10 mM ATP, pH 8.0, 32° C., 15 hours
From the text: The substrate specificity of BBR47_51900 and Staur_4851 was studied in the reaction mixture containing the enzyme and canonical L-amino acids such as L-alanine, L-arginine, L-asparagine, L-aspartic acid, L-cysteine, glycine, L-glutamic acid, L-glutamine, L-histidine, L-isoleucine, L-leucine, L-lysine, L-methionine, L-phenylalanine, L-proline, L-serine, L-threonine, L-tryptophan, L-tyrosine, and L-valine, or salts thereof, of the same or two different kinds. The composition of the reaction mixture of total volume of 50 μL was as follows unless otherwise noted:
Reactions were carried out at 32° C. for 15 hours. 1-2 μL of reaction mixture was subjected to thin layer chromatography (TLC) analysis using as mobile phase the mixture of 2-propanol:acetone:250 mM ammonia:H2O as 100:100:12:28. […] Detection was performed at 540 nm. The new spots on TLC-plates were detected after developing the reaction mixtures, which contained: […]

[8] = DP3 conc. 2 (mM), M9-salt/Glucose (0.4%, W/V)
[9] = DP3 conc. 2 (mM), M9-salt/Glycerol (0.4%, W/V)
[10] = DP3 conc. 4 (mM), M9-salt/Glucose (0.4%, W/V)
[11] = DP3 conc. 4 (mM), M9-salt/Glycerol (0.4%, W/V)
[12] = DP3 conc. 6 (mM), M9-salt/Glucose (0.4%, W/V)
[13] = DP3 conc. 6 (mM), M9-salt/Glycerol (0.4%, W/V)
[14] = DP3 conc. 10 (mM), M9-salt/Glucose (0.4%, W/V)
[15] = DP3 conc. 10 (mM), M9-salt/Glycerol (0.4%, W/V)
[16] = DP3 conc. 15 (mM), M9-salt/Glucose (0.4%, W/V)
[17] = DP3 conc. 15 (mM), M9-salt/Glycerol (0.4%, W/V)
[18] = DP3 conc. 20 (mM), M9-salt/Glucose (0.4%, W/V)
[19] = DP3 conc. 20 (mM), M9-salt/Glycerol (0.4%, W/V)
[20] = DP3 conc. 30 (mM), M9-salt/Glucose (0.4%, W/V)
[21] = DP3 conc. 30 (mM), M9-salt/Glycerol (0.4%, W/V)
[22] = DP3 conc. 50 (mM), M9-salt/Glucose (0.4%, W/V)
[23] = DP3 conc. 50 (mM), M9-salt/Glycerol (0.4%, W/V)

L-Asp-L-5-Fluorotryptophan [DP3]
specific aspartic peptide-hydrolyzing activity (A) ([1]; Mn^2+): 282.34 nmol/mg/min | specific aspartic peptide-hydrolyzing activity (A) ([1]; Zn^2+): 123.03 nmol/mg/min | specific aspartic peptide-hydrolyzing activity (A) ([1]; no cofactor): 110.48 nmol/mg/min | level of growth (DP3 toxicity) (E. coli BW25113; [8]): ++ | level of growth (DP3 toxicity) (E. coli BW25113; [9]): ++ | level of growth (DP3 toxicity) (E. coli BW25113; [10]): + | level of growth (DP3 toxicity) (E. coli BW25113; [11]): + | level of growth (DP3 toxicity) (E. coli BW25113; [12]): +− | level of growth (DP3 toxicity) (E. coli BW25113; [13]): +− | level of growth (DP3 toxicity) (E. coli BW25113; [14]): − | level of growth (DP3 toxicity) (E. coli BW25113; [15]): − | level of growth (DP3 toxicity) (E. coli BW25113; [16]): − | level of growth (DP3 toxicity) (E. coli BW25113; [17]): − | level of growth (DP3 toxicity) (E. coli BW25113; [18]): − | level of growth (DP3 toxicity) (E. coli BW25113; [19]): − | level of growth (DP3 toxicity) (E. coli BW25113; [20]): − | level of growth (DP3 toxicity) (E. coli BW25113; [21]): − | level of growth (DP3 toxicity) (E. coli BW25113; [22]): − | level of growth (DP3 toxicity) (E. coli BW25113; [23]): − | specific aspartic peptide-hydrolyzing activity (A) ([2]; Mn^2+): 14.14 nmol/mg/min | specific aspartic peptide-hydrolyzing activity (A) ([2]; Zn^2+): 5.63 nmol/mg/min | specific aspartic peptide-hydrolyzing activity (A) ([2]; no cofactor): 7.41 nmol/mg/min | specific aspartic peptide-hydrolyzing activity (A) ([3]; Mn^2+): 13.26 nmol/mg/min | specific aspartic peptide-hydrolyzing activity (A) ([3]; Zn^2+): 6.38 nmol/mg/min | specific aspartic peptide-hydrolyzing activity (A) ([3]; no cofactor): 6.98 nmol/mg/min | level of growth (DP3 toxicity) (E. coli 5Δ strain; [8]): ++ | level of growth (DP3 toxicity) (E. coli 5Δ strain; [9]): ++ | level of growth (DP3 toxicity) (E. coli 5Δ strain; [10]): ++ | level of growth (DP3 toxicity) (E. coli 5Δ strain; [11]): ++ | level of growth (DP3 toxicity) (E. coli 5Δ strain; [12]): ++ | level of growth (DP3 toxicity) (E. coli 5Δ strain; [13]): ++ | level of growth (DP3 toxicity) (E. coli 5Δ strain; [14]): ++ | level of growth (DP3 toxicity) (E. coli 5Δ strain; [15]): + | level of growth (DP3 toxicity) (E. coli 5Δ strain; [16]): ++ | level of growth (DP3 toxicity) (E. coli 5Δ strain; [17]): + | level of growth (DP3 toxicity) (E. coli 5Δ strain; [18]): ++ | level of growth (DP3 toxicity) (E. coli 5Δ strain; [19]): +− | level of growth (DP3 toxicity) (E. coli 5Δ strain; [20]): +− | level of growth (DP3 toxicity) (E. coli 5Δ strain; [21]): − | level of growth (DP3 toxicity) (E. coli 5Δ strain; [22]): − | level of growth (DP3 toxicity) (E. coli 5Δ strain; [23]): − | specific aspartic peptide-hydrolyzing activity (A) ([4]; Mn^2+): 6.86 nmol/mg/min | specific aspartic peptide-hydrolyzing activity (A) ([4]; Zn^2+): 4.69 nmol/mg/min | specific aspartic peptide-hydrolyzing activity (A) ([4]; no cofactor): 6.07 nmol/mg/min

B1: Staur_4851: L-amino acid α-ligase (argininosuccinate lyase 2-like protein) from Stigmatella aurantiaca DW4/3-1, SEQ ID NO: 4 (protein)
chain: MNQFVFVESNTTGTGRLAVERLLAQGEQVTFITHQPEKYPFLVGNKAPGLKVLKVETNDAAAVEACVDGLVREGKVAALLTFSTFYVPTVAAIAARHGLRYLQPRAAQACHNKHEARALLRAAGLPGPEFHVIASEAEAAQLAQTVRFPCVVKPPAESGSTGVRRVDTPEELLAHFRSLHSRAANERGQSLHGEVLVESFLEGPEFSVETMTLADGTTHVLGVTQKYLSAPPYFVEMGHDFPADLPPERRRALEEAVLAGLAAVGFDFGPAHTEIRFTPAGPVIIEINPRLAGGMIPELVRLSTGVDLLSAMLDQMLGRPVDLTHTRQDVACIRFITSERPGVLARVEGQDEASRLGTVRQVAVDKAAGTRLRPPESATDRLGYVIASGPERGQVLGDAARALSLLRVEQAAPSAPA
modifications: Stigmatella aurantiaca DW4/3-1
Asp-Phe ([5]; 1 hr): 10 mM | Asp-Phe ([5]; 2 hr): 20 mM | Asp-Phe ([5]; 4 hr): 33 mM | Asp-Phe ([5]; 8 hr): 49 mM | Asp-Phe ([5]; 24 hr): 56 mM | Asp-Phe ([5]; 48 hr): 56 mM | Dipeptides (mM) Asp-Phe [6]: 2.54 mM | Dipeptides (mM) Asp-PheOMe [6]: 0.02 mM | Dipeptides (mM) Asp-Trp [6]: 1.48 mM | Dipeptides (mM) Asp-Val [6]: 4.4 mM | Dipeptides (mM) Glu-Val [6]: 0.40 mM | L-amino acid pairs giving new spots on TLC-plates (ligation) [7]: L-Asp/L-Phe, or L-Asp/L-Trp, or L-Asp/L-Thr
